Experimental findings from published antibiotic growth screens (doi:10.1038/s41589-023-01349-8) are described below.

This is one part of the list.

This experiment relates to A. baumannii ATCC 17978. The experiment in a line: relative growth (fraction of control); higher = less inhibition. To be noted: 50 µM.
Turning to `COc1nc(=NC(=O)NS(=O)(=O)Nc2cccc3cccnc23)nc(OC)[nH]1`, the relative growth worked out at 0.936.
As for `CC(C)NC(=O)[C@@H](N)c1ccccc1`, the figure is 1.04; as for `NC(=O)N1c2ccccc2C=Cc2ccccc21`, 0.859; as for `C[C@H]1C(=O)CCC2[C@]3(C)CC[C@@]4(C)C5CC(C)(C)CC[C@]5(C)CC[C@]4(C)C3CC[C@@]21C` (stereo not given in full), 0.904.
As to `C=CCC[C@@H](Cc1ccc(F)cc1)C(=O)OC[C@@H](NC(=O)[C@@H](CC=C)CC(=O)N(CCO)Cc1ccccc1)C(C)(C)C`, the relative growth stood at 0.969.
The same measure for `Cc1ccc(S(=O)(=O)N[C@@H](Cc2ccccc2)C(=O)NCCCn2cc(CN3C(=O)COC[C@H]3c3ccccc3)nn2)cc1`: 0.862; for `CO[C@@H](CN(C)C(=O)Nc1ccc(C(F)(F)F)cc1)[C@H](C)CN(Cc1ccccc1Cl)[C@@H](C)CO`: 0.688.
As for `COc1cccc(NC(=O)N[C@@H]2C=C[C@@H](CC(=O)N3CCN(C)CC3)O[C@H]2CO)c1`, the figure is 0.974; as for `CCC(CC)c1nc(Nc2ccccc2)c2ccccc2n1`, 0.807.
In turn, `COc1ccc([C@H]([C@@H](O)Cc2ccccc2)N(C[C@H](/C=C/c2ccccc2)CC(=O)N(C)C)[C@@H](Cc2ccccc2)C(OC)OC)cc1` returned a relative growth of 1.17.
The same measure for `C[C@H](CO)N1C[C@H](C)[C@@H](CN(C)S(=O)(=O)c2ccccc2)Oc2cc(Br)ccc2S1(=O)=O`: 1.01; for `COc1ccc([Si](C)(C)[C@H]2[C@H](CC(=O)N3CCC[C@H]3CO)O[C@@]3(C(=O)N(Cc4cccc(N5CCCCC5=O)c4)c4ccccc43)[C@@H]2C)cc1`: 1.11.
As for `Nc1ncn([C@@H]2O[C@H](CO)[C@@H](O)[C@H]2O)c(=O)n1`, the figure is 0.977; as for `C[C@H]1CN([C@@H](C)CO)C(=O)Cc2cc(NC(=O)Nc3cccc(C(F)(F)F)c3)ccc2O[C@H]1CN(C)S(=O)(=O)c1ccc(Oc2ccccc2)cc1`, 1.
In the case of `C[C@@H]1O[C@@H](O[C@@H]2[C@@H](O)[C@H](O)[C@@H](CO)O[C@H]2c2c(O)cc3oc(-c4ccc(O)cc4)cc(=O)c3c2O)[C@H](O)[C@H](O)[C@H]1O`, the relative growth worked out at 1.17.
The molecule `COc1ccccc1S(=O)(=O)N[C@H]1C=C[C@H](CC(=O)N2CCN(C)CC2)O[C@H]1CO` displayed a relative growth of 0.921.
As to `Cc1ccnc(NC(=O)Cn2cnc3c2c(=O)n(C)c(=O)n3C)c1`, the relative growth was 1.02.
The same measure for `O=C(Nc1ccn([C@H]2O[C@H](CO)[C@@H](O)[C@@H]2O)c(=O)n1)c1ccccc1`: 1.04.
The same measure for `CC(C)NC(=O)[C@@H](C)n1ncn2cccc2c1=O`: 1.04.
The same measure for `CC(C)/C(=N/O)c1ccccc1`: 1.
Take `Cc1ccc(S(=O)(=O)O)cc1.NC1CCN(c2nc3c(cc2F)c(=O)c(C(=O)O)cn3-c2ccc(F)cc2F)C1.O` (stereo not given): the relative growth was determined as 0.478.
Take `COc1ccccc1NC(=O)N(C)C[C@@H]1Oc2cc(Br)ccc2S(=O)(=O)N([C@@H](C)CO)C[C@H]1C`: the relative growth is 0.799.
Regarding `CC(=O)c1ccc(S(=O)(=O)NC(=O)NC2CCCCC2)cc1`, the relative growth amounted to 1.01.
In the case of `CCOC(=O)CC1=NC(=O)CS1`, the relative growth is 1.04.
The same measure for `O=C(N[C@@H]1CC[C@H](CCNS(=O)(=O)c2ccccc2)O[C@H]1CO)c1cnccn1`: 1.04; for `CO/N=C1\CN(c2nc3c(cc2F)c(=O)c(C(=O)O)cn3C2CC2)C[C@@H]1CN`: 0.121; for `O=C(NCc1ccccc1)OCCO`: 0.9.
`C[C@H]1CN([C@@H](C)CO)S(=O)(=O)c2ccc(C#Cc3cccc(F)c3)cc2O[C@@H]1CN(C)S(=O)(=O)c1ccccc1F` had a relative growth of 1.23.
As for `O=C1CCCNc2ccc(Cl)cc21`, the figure is 0.912; as for `Cc1cccc(NC(=O)Nc2ccc3c(c2)C(=O)N(C)[C@@H]2CC[C@@H](CC(=O)NCc4ccccc4Cl)O[C@H]2CO3)c1`, 1.07.
As for `C[C@@H](NC=C1C(=O)OC(C)(C)OC1=O)C(=O)O`, the figure is 0.952; as for `CCCNC(=O)N[C@@H]1CC[C@H](CC(=O)N2CCN(C)CC2)O[C@H]1CO`, 1.06; as for `O=C1N[C@H](Cc2c[nH]c3ccccc23)COC(=O)[C@@H](Cc2ccc(F)cc2)CCC=CC[C@@H]1CC(=O)N(CCO)Cc1ccccc1`, 1.03.
As for `CCC(=O)N(C)C[C@@H]1Oc2ncc(C#C[C@H](C)O)cc2C(=O)N([C@H](C)CO)C[C@H]1C`, the figure is 1; as for `Cc1nc2ccccc2n1Cc1ccc(Cl)cc1`, 0.145; as for `CCN1CC(CCN2CCOCC2)C(c2ccccc2)(c2ccccc2)C1=O.Cl` (stereo not given), 1.27.
`Cc1cc(=O)oc2cc(O)ccc12` yielded a relative growth of 0.824.
The same measure for `COc1ccc(S(=O)(=O)N(C)C[C@@H]2Oc3cc(C4=CCCC4)ccc3S(=O)(=O)N([C@@H](C)CO)C[C@H]2C)cc1`: 1.11.
The same measure for `O=C(Nc1cccc(C(F)(F)F)c1)c1ccc2ccccc2c1`: 0.983; for `NCC[C@H]1CC[C@@H](NC(=O)C2CCCCC2)[C@@H](CO)O1`: 1.23.
The same measure for `COc1ccccc1S(=O)(=O)N1C[C@H](O)COC[C@H]2O[C@@H](CC(=O)O)CC[C@@H]21`: 1.1; for `COc1ccc([C@H]([C@@H](O)Cc2ccccc2)N(CC#C[C@@H](O[Si](c2ccccc2)(c2ccccc2)C(C)(C)C)c2ccccc2)[C@@H](Cc2ccccc2)C(OC)OC)cc1`: 1.4; for `COCC(=O)N1c2ccccc2C[C@H]1C(N)=O`: 1.13.
On to `CC[C@@H]1CN(C(=O)OC)N1`, for which the relative growth was 1.02.
The same measure for `CN(C)CCCCCCNC(=O)[C@H]1C[C@H]2C(=O)N[C@@H](CCCC[N+](C)(C)C)C(=O)N2[C@H]1c1cccc(OCCO)c1`: 0.96; for `Cc1cccc(CN2CCN(C(c3ccccc3)c3ccc(Cl)cc3)CC2)c1.Cl.Cl` (stereo not given): 1.2; for `C[C@]12C=CC(=O)C=C1CCC1C2[C@@H](O)C[C@@]2(C)C1CC[C@]2(O)C(=O)COC(=O)CCC(=O)O` (stereo not given in full): 0.551.
`O=S(=O)(NCC[C@H]1CC[C@@H](NS(=O)(=O)c2ccccc2Cl)[C@H](CO)O1)c1ccc(F)cc1`: the relative growth is 1.2.
As for `O=C(C[C@H]1CC[C@H](NC(=O)C2CC2)[C@H](CO)O1)NCCCN1CCOCC1`, the figure is 0.818; as for `C[C@@H]1CN([C@H](C)CO)S(=O)(=O)c2ccc(C#Cc3ccccc3F)cc2O[C@@H]1CN(C)CC1CC1`, 0.819.
As for `Cl.NCCCC(N)C(=O)O` (stereo not given), the figure is 0.832; as for `CCc1[nH]c(=S)[nH]c(=O)c1C#N`, 0.897.
The same measure for `O=C(C[C@H]1CC[C@H]2[C@@H](COC[C@H](O)CN2S(=O)(=O)c2ccc(Cl)cc2)O1)NCCN1CCCCC1`: 0.98; for `COc1cc(C(=O)O)cc(OC)c1O`: 0.961.
The molecule `C[C@H]1CCCN(S(=O)(=O)CCN)C1` showed a relative growth of 1.05.
`C=CC[C@@H](CC(=O)NCCO)C(=O)N[C@@H](COC(=O)[C@@H](CC=C)CC(=O)OC(C)(C)C)Cc1c[nH]c2ccccc12` registered a relative growth of 1.01.
The same measure for `C[C@H]1CN([C@@H](C)CO)C(=O)CCCn2nncc2CO[C@H]1CN(C)S(=O)(=O)c1ccc(Cl)cc1`: 0.978; for `COc1cccc(S(=O)(=O)Nc2ccc3c(c2)OC[C@H](C)N(C(=O)Cc2cccnc2)C[C@@H](C)[C@@H](OC)CN(C)C3=O)c1`: 1.01.
On to `O=C(CN1CCOCC1)N[C@H]1CC[C@H](CCn2cc(C3CC3)nn2)O[C@H]1CO`, for which the relative growth was determined as 1.19.
As for `O=C(C[C@@H]1CC[C@H]2[C@@H](COC[C@H](O)CN2C(=O)c2ccccc2F)O1)N1CCN(c2ccccc2)CC1`, the figure is 1.02; as for `O=C(C[C@@H]1CC[C@@H](NC(=O)c2cnccn2)[C@@H](CO)O1)NCc1ccccc1F`, 0.973; as for `COc1cccc(S(=O)(=O)N(C)C[C@H]2Oc3cc(C4=CCCC4)ccc3S(=O)(=O)N([C@H](C)CO)C[C@@H]2C)c1`, 1.
As to `CN(C)CC(=O)N[C@H]1CC[C@@H](CCNC(=O)C2CC2)O[C@@H]1CO`, the relative growth is 1.18.
The same measure for `CCCNC(=O)N1C[C@@H](O)COC[C@H]2O[C@H](CC(=O)N3CCN(C)CC3)CC[C@@H]21`: 0.966; for `O=C(C[C@H]1CC=CC[C@H](NC(=O)OCC2c3ccccc3-c3ccccc32)C(=O)OCCNC1=O)NCCO`: 1.
As for `NS(=O)(=O)c1ncn(Cc2ccccc2)n1`, the figure is 0.805.
The same measure for `COc1ccccc1-c1ccc2c(c1)O[C@@H](CN(C)C(=O)c1cccnc1)[C@H](C)CN([C@@H](C)CO)S2(=O)=O`: 0.967; for `CCC(=O)Nc1ccc2c(c1)OC[C@H](C)N(C(=O)CN1CCOCC1)C[C@H](C)[C@@H](OC)CN(C)C2=O`: 1.13; for `COc1cc2c(cc1OC)CN(C(=O)[C@H]1[C@@H]3C(=O)O[C@@H](c4ccccc4)[C@@H](c4ccccc4)N3[C@@H](c3ccc(OCCO)cc3)[C@]13C(=O)Nc1ccc(C#CC4(O)CCCCCC4)cc13)CC2`: 1.34.
`CO[C@@H]1[C@@H](OC(=O)c2ccc(C)[nH]2)[C@@H](O)[C@@H](Oc2ccc3c(c2C)OC(=O)[C@H](NC(=O)c2[nH]cc(CC(=O)Nc4cc5ccc(O[C@@H]6OC(C)(C)[C@H](OC)[C@@H](OC(=O)c7ccc(C)[nH]7)[C@H]6O)c(C)c5oc4=O)c2C)C3)CC1(C)C` registered a relative growth of 0.235.
The same measure for `O=c1cc(-c2ccccc2)[nH]c(=O)[nH]1`: 0.923; for `CC(C)CSc1ncnc2scc(-c3ccccc3)c12`: 0.92.
On to `Cc1ccc(S(=O)(=O)N2C[C@H](O)COC[C@H]3O[C@H](CC(=O)NCc4ccc5c(c4)OCO5)CC[C@@H]32)cc1`, for which the relative growth was 0.973.
The same measure for `O=C(CCCCCC(=O)N/N=C/[C@H](O)[C@@H](O)[C@H](O)CO)NO`: 0.979.
As for `CNCc1ccccc1.Cl`, the figure is 1.09.
Molecule `O=C(C[C@H]1CC[C@H]2[C@@H](COC[C@H](O)CN2S(=O)(=O)c2ccc(F)cc2)O1)N[C@H]1CCN(Cc2ccccc2)C1` had a relative growth of 1.09.
The same measure for `COCC#Cc1ccc2c(c1)O[C@H](CN(C)S(=O)(=O)c1cccc(OC)c1)[C@H](C)CN([C@H](C)CO)S2(=O)=O`: 0.89.
As for `CCCC1CCC(c2ccc(OC(=O)c3cccnc3)cc2)CC1` (stereo not given), the figure is 1.23; as for `CO[C@H]1CN(C)C(=O)c2cc(NC(=O)Nc3ccccc3F)ccc2OC[C@@H](C)N(Cc2ccccc2C(=O)O)C[C@H]1C`, 0.993.
The same measure for `O=C(C[C@@H]1C=C[C@H](NS(=O)(=O)c2ccccc2)[C@@H](CO)O1)NCc1ccncn1`: 1.08.
